Data reported in article PMC12678819, “Targeting bacterial kinases as a strategy to counteract antibiotic resistance” (2025).

Protein sequences, listed by entry. Tags and fused reporters are not part of them. Lines headed by an entry give the natural chain unless they say otherwise; changes in a name come on top. Residues count along the entry.
UniProt Q96NX5, 23-277 limits assumed: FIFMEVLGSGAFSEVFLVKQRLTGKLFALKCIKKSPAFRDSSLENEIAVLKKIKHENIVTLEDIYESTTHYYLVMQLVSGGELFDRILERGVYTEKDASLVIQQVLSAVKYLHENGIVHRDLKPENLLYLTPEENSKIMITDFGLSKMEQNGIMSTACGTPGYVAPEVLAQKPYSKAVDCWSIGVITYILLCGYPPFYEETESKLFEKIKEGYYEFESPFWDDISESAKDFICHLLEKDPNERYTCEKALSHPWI
UniProt Q16539, whole entry, looked up: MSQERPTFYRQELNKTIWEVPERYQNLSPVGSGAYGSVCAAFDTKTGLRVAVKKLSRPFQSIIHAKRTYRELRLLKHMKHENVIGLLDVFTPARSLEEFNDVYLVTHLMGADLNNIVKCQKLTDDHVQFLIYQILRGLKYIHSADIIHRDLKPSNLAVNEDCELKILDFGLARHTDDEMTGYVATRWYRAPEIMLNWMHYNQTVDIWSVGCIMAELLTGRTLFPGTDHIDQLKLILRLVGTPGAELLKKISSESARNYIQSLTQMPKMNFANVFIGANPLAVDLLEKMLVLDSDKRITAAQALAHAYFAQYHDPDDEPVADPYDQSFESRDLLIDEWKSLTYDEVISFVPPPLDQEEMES
UniProt P29317, 613-875 limits assumed: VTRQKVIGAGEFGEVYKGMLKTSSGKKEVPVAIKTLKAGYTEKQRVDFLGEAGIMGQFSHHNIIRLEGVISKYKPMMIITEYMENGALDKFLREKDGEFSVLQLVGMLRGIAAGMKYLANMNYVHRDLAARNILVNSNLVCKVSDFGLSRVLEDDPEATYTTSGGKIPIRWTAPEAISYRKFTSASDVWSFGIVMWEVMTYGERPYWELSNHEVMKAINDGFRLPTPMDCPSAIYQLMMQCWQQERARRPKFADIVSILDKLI
UniProt P51955, 1-271 limits assumed: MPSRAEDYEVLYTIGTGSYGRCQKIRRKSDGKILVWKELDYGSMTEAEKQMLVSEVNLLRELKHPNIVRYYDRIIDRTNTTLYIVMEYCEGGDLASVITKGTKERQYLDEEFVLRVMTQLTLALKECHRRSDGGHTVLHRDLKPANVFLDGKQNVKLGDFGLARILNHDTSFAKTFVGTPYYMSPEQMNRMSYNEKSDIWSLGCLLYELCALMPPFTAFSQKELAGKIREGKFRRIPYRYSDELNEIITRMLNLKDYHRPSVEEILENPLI
UniProt Q96SB4, 80-653 limits assumed: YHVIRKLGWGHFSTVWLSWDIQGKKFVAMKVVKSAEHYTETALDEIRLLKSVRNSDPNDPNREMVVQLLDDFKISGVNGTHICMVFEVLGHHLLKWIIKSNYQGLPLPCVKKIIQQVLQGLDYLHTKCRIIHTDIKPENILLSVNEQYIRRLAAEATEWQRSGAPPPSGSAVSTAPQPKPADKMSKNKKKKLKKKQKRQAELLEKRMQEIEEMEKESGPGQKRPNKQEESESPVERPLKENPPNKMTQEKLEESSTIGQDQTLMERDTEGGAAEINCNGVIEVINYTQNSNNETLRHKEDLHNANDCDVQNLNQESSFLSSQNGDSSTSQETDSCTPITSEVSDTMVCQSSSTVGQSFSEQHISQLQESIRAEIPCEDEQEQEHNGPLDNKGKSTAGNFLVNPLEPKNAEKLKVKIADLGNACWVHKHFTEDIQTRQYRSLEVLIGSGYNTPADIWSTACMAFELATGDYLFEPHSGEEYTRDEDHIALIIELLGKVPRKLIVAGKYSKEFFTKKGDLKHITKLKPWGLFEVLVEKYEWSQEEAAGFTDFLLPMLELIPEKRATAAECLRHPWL
UniProt O15264: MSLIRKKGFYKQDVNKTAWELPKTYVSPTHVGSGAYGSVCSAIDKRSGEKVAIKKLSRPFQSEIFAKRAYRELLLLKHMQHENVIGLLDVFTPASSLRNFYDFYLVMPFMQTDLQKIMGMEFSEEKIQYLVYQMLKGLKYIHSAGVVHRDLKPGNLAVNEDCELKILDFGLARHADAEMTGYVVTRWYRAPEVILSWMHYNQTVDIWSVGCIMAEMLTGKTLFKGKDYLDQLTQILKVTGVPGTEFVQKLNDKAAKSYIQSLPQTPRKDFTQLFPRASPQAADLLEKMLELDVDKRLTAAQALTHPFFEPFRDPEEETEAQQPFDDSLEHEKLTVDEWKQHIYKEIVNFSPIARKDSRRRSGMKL
UniProt Q96L34, 59-310 limits assumed: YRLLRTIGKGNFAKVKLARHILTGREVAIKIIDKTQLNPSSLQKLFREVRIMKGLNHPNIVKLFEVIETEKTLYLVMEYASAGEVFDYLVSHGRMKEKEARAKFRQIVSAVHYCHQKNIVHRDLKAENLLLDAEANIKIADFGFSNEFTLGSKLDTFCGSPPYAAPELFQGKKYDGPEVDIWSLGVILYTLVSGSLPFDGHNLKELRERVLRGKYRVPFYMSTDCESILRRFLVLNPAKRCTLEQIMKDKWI
UniProt Q09013: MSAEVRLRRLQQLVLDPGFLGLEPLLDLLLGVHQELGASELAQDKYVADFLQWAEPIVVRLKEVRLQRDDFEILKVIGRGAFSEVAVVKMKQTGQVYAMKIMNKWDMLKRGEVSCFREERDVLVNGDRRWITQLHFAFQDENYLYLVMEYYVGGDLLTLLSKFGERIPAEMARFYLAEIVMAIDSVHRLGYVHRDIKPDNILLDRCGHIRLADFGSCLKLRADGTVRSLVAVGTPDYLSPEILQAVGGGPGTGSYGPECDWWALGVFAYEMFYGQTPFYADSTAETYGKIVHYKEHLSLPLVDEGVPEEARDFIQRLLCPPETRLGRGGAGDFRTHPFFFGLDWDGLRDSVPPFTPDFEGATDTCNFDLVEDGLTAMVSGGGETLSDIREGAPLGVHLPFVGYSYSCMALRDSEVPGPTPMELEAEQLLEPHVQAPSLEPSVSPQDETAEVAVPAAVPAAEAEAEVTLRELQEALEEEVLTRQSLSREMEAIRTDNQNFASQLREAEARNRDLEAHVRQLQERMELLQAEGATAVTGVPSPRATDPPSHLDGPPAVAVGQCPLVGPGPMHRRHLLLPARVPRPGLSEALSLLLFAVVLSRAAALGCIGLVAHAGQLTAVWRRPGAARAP
UniProt P55201: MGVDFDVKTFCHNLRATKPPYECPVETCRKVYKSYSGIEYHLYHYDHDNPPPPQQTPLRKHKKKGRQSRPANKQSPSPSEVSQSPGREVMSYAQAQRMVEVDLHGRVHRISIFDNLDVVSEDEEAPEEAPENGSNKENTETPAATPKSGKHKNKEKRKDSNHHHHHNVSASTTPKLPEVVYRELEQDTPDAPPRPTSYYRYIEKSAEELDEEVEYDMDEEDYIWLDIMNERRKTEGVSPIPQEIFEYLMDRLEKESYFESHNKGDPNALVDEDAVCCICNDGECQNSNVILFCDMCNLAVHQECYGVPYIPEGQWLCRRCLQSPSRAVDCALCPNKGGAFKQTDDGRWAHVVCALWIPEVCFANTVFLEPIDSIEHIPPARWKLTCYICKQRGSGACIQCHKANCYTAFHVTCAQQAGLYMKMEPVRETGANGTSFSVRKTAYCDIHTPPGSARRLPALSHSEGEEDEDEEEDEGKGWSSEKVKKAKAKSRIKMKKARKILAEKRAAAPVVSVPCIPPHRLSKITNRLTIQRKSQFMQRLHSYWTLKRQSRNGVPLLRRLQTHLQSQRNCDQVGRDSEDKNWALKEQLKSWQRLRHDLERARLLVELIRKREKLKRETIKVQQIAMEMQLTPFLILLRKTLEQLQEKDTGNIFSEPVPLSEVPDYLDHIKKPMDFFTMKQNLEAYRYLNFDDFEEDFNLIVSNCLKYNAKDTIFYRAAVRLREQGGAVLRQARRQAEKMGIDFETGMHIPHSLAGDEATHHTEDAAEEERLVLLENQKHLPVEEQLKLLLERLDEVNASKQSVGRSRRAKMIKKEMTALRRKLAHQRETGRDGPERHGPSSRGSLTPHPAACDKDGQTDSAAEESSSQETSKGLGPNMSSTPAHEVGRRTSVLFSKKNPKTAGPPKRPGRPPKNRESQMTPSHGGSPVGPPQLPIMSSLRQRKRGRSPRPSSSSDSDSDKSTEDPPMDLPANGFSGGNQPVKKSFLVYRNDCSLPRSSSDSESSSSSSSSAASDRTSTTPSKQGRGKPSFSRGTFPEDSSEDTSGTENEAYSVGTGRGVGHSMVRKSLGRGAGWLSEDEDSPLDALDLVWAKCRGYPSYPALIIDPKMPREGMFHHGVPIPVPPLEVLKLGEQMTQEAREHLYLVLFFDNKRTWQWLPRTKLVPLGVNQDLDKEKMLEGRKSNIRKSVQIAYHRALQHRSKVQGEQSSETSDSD
UniProt P07332, 561-822 limits assumed: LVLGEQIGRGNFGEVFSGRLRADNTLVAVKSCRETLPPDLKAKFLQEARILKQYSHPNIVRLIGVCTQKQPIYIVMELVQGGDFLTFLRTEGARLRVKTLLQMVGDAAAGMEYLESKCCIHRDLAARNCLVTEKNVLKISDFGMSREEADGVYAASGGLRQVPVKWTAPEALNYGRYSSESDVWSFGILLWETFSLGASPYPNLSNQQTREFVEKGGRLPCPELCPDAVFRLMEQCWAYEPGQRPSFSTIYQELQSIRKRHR
UniProt Q15375, 590-899 limits assumed: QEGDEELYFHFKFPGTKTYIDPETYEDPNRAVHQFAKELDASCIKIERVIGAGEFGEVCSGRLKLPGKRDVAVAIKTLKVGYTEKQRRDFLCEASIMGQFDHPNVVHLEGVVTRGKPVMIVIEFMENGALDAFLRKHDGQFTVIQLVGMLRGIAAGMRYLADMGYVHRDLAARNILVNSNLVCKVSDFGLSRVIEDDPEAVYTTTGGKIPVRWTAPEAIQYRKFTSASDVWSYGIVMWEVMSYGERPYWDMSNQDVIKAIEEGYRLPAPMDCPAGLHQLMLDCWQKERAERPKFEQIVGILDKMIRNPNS
UniProt P33981, 525-791 limits assumed: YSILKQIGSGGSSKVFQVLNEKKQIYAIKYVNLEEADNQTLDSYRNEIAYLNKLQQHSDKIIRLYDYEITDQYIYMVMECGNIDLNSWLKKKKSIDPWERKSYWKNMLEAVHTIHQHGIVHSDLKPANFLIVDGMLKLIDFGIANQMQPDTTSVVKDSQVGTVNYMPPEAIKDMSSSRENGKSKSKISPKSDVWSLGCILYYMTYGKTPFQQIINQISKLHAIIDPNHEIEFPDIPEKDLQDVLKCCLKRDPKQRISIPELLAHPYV
UniProt Q9Y2H1, 90-453 limits assumed: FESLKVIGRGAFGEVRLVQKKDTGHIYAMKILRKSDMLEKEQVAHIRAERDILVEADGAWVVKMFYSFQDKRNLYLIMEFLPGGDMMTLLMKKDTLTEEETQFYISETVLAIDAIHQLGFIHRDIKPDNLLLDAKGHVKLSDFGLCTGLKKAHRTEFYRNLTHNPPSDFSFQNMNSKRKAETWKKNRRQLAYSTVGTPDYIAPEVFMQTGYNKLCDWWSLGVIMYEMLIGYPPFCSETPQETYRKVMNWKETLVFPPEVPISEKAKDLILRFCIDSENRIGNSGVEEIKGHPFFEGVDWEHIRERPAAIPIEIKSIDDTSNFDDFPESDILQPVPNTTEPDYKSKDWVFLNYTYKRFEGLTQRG
UniProt P34947, whole entry, looked up: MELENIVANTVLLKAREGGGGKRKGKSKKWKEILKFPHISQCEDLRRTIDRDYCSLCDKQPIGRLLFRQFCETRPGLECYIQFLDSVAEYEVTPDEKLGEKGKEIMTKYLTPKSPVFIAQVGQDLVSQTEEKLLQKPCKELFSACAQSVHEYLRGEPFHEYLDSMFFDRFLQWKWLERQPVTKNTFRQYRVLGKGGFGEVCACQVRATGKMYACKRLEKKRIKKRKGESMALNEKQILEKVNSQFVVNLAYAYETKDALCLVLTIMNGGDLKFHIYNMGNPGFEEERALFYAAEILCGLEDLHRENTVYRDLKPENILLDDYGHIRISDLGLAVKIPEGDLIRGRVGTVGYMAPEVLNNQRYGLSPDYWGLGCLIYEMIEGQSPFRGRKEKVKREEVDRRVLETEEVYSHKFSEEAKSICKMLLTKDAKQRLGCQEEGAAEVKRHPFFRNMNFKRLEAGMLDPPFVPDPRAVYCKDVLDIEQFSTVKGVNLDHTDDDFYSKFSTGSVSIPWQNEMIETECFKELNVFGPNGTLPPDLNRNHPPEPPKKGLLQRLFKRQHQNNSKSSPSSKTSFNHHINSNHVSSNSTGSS
UniProt Q00536, 163-478 limits assumed: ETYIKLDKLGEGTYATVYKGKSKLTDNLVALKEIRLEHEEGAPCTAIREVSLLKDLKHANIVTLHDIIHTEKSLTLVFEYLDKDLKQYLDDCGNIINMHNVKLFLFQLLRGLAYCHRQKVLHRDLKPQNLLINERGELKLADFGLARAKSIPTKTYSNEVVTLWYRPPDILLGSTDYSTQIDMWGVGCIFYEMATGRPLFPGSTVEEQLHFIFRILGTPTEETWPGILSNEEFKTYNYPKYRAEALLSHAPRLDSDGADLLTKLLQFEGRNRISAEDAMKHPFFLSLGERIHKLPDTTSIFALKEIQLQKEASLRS
UniProt P53355, 13-275 limits assumed: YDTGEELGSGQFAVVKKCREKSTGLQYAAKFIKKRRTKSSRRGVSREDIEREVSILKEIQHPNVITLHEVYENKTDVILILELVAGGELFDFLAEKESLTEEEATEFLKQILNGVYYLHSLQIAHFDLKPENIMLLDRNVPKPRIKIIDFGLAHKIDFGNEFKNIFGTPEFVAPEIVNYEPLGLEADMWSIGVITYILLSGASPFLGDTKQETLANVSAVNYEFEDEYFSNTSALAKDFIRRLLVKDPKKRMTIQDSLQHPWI

What was measured:
Assay in all cases: DSF kinase panel
Conditions in all cases: 10 μM
[1] = biological target: AurA (Homo sapiens, UniProt O14965)
[2] = biological target: CAMK1G (Homo sapiens, UniProt Q96NX5)
[3] = biological target: CK2a1 (Homo sapiens, UniProt P68400)
[4] = biological target: ULK3 (Homo sapiens, UniProt Q6PHR2)
[5] = biological target: FECH (Homo sapiens, UniProt P22830)
[6] = biological target: OSR1 (Homo sapiens, UniProt O95747)
[7] = biological target: CAMK2B (Homo sapiens, UniProt Q13554)
[8] = biological target: ULK1 (Homo sapiens, UniProt O75385)
[9] = biological target: p38a (Homo sapiens, UniProt Q16539)
[10] = biological target: EphA2 (Homo sapiens, UniProt P29317)
[11] = biological target: SRC (Homo sapiens, UniProt P12931)
[12] = biological target: NEK2 (Homo sapiens, UniProt P51955)
[13] = biological target: SRPK1 (Homo sapiens, UniProt Q96SB4)
[14] = biological target: DAPK3 (Homo sapiens, UniProt O43293)
[15] = biological target: CDK2 (Homo sapiens, UniProt P24941)
[16] = biological target: CLK1 (Homo sapiens, UniProt P49759)
[17] = biological target: FLT1 (Homo sapiens, UniProt P17948)
[18] = biological target: p38d (Homo sapiens, UniProt O15264)
[19] = biological target: MARK4 (Homo sapiens, UniProt Q96L34)
[20] = biological target: PAK4 (Homo sapiens, UniProt O96013)
[21] = biological target: DYRK1A (Homo sapiens, UniProt Q13627)
[22] = biological target: MST1 (Homo sapiens, UniProt Q13043)
[23] = biological target: JNK1 (Homo sapiens, UniProt P45983)
[24] = biological target: DMPK1 (Homo sapiens, UniProt Q09013)
[25] = biological target: MELK (Homo sapiens, UniProt Q14680)
[26] = biological target: BRPF1 (Homo sapiens, UniProt P55201)
[27] = biological target: FES (Homo sapiens, UniProt P07332)
[28] = biological target: ATK3 (Homo sapiens, UniProt Q9Y243)
[29] = biological target: EPHA7 (Homo sapiens, UniProt Q15375)
[30] = biological target: MSK1_b (Homo sapiens, UniProt O75582)
[31] = biological target: TTK (Homo sapiens, UniProt P33981)
[32] = biological target: LOK (Homo sapiens, UniProt O94804)
[33] = biological target: NDR2 (Homo sapiens, UniProt Q9Y2H1)
[34] = biological target: MER (Homo sapiens, UniProt Q12866)
[35] = biological target: NEK1 (Homo sapiens, UniProt Q96PY6)
[36] = biological target: GPRK5 (Homo sapiens, UniProt P34947)
[37] = biological target: PCTAIRE1 (Homo sapiens, UniProt Q00536)
[38] = biological target: STLK3 (Homo sapiens, UniProt Q9UEW8)
[39] = biological target: CSNK1E (Homo sapiens, UniProt P49674)
[40] = biological target: BMPR2 (Homo sapiens, UniProt Q13873)
[41] = biological target: CK1d (Homo sapiens, UniProt P48730)
[42] = biological target: DAPK1 (Homo sapiens, UniProt P53355)

SMILES: OCCCn1cc(-c2c(Cl)cnc3[nH]ccc23)nn1
- ΔTm AurA [1]: 7.4 °C
- ΔTm CAMK1G [2]: 1.7 °C
- ΔTm CK2a1 [3]: 1.4 °C
- ΔTm ULK3 [4]: 6.1 °C
- ΔTm FECH [5]: -1.5 °C
- ΔTm OSR1 [6]: 0.4 °C
- ΔTm CAMK2B [7]: 0.4 °C
- ΔTm ULK1 [8]: 2.8 °C
- ΔTm p38a [9]: -0.6 °C
- ΔTm EphA2 [10]: -0.3 °C
- ΔTm SRC [11]: -0.1 °C
- ΔTm NEK2 [12]: -1.6 °C
- ΔTm SRPK1 [13]: -0.2 °C
- ΔTm DAPK3 [14]: 4.7 °C
- ΔTm CDK2 [15]: 0.9 °C
- ΔTm CLK1 [16]: 4.1 °C
- ΔTm FLT1 [17]: 3.9 °C
- ΔTm p38d [18]: 0.5 °C
- ΔTm MARK4 [19]: 2.3 °C
- ΔTm PAK4 [20]: 2.7 °C
- ΔTm DYRK1A [21]: 1.7 °C
- ΔTm MST1 [22]: 2.3 °C
- ΔTm JNK1 [23]: 1.3 °C
- ΔTm DMPK1 [24]: 1.5 °C
- ΔTm MELK [25]: 4.1 °C
- ΔTm BRPF1 [26]: -0.5 °C
- ΔTm FES [27]: 0.6 °C
- ΔTm ATK3 [28]: 0.0 °C
- ΔTm EPHA7 [29]: 1.1 °C
- ΔTm MSK1_b [30]: 8.0 °C
- ΔTm TTK [31]: 1.6 °C
- ΔTm LOK [32]: -1.3 °C
- ΔTm NDR2 [33]: -0.7 °C
- ΔTm MER [34]: 0.3 °C
- ΔTm NEK1 [35]: 1.0 °C
- ΔTm GPRK5 [36]: 1.1 °C
- ΔTm PCTAIRE1 [37]: 0.0 °C
- ΔTm STLK3 [38]: 1.1 °C
- ΔTm CSNK1E [39]: 3.4 °C
- ΔTm BMPR2 [40]: 5.6 °C
- ΔTm CK1d [41]: 4.5 °C
- ΔTm DAPK1 [42]: 2.7 °C

SMILES: C[C@H](CO)Cn1cc(-c2c(Cl)cnc3[nH]ccc23)nn1
- ΔTm AurA [1]: 7.6 °C
- ΔTm CAMK1G [2]: 1.9 °C
- ΔTm CK2a1 [3]: 1.8 °C
- ΔTm ULK3 [4]: 7.1 °C
- ΔTm FECH [5]: -1.1 °C
- ΔTm OSR1 [6]: 1.5 °C
- ΔTm CAMK2B [7]: 0.1 °C
- ΔTm ULK1 [8]: 3.3 °C
- ΔTm p38a [9]: -0.7 °C
- ΔTm EphA2 [10]: -0.2 °C
- ΔTm SRC [11]: 1.4 °C
- ΔTm NEK2 [12]: -0.7 °C
- ΔTm SRPK1 [13]: 0.4 °C
- ΔTm DAPK3 [14]: 5.6 °C
- ΔTm CDK2 [15]: 1.7 °C
- ΔTm CLK1 [16]: 4.8 °C
- ΔTm FLT1 [17]: 4.4 °C
- ΔTm p38d [18]: 1.1 °C
- ΔTm MARK4 [19]: 2.1 °C
- ΔTm PAK4 [20]: 3.3 °C
- ΔTm DYRK1A [21]: 1.6 °C
- ΔTm MST1 [22]: 2.0 °C
- ΔTm JNK1 [23]: 1.6 °C
- ΔTm DMPK1 [24]: 2.0 °C
- ΔTm MELK [25]: 4.1 °C
- ΔTm BRPF1 [26]: -1.0 °C
- ΔTm FES [27]: 1.0 °C
- ΔTm ATK3 [28]: 0.2 °C
- ΔTm EPHA7 [29]: 1.3 °C
- ΔTm MSK1_b [30]: 6.1 °C
- ΔTm TTK [31]: 2.6 °C
- ΔTm LOK [32]: -1.7 °C
- ΔTm NDR2 [33]: -1.0 °C
- ΔTm MER [34]: 0.4 °C
- ΔTm NEK1 [35]: 1.7 °C
- ΔTm GPRK5 [36]: 1.1 °C
- ΔTm PCTAIRE1 [37]: 0.6 °C
- ΔTm STLK3 [38]: 1.1 °C
- ΔTm CSNK1E [39]: 2.9 °C
- ΔTm BMPR2 [40]: 6.2 °C
- ΔTm CK1d [41]: 3.8 °C
- ΔTm DAPK1 [42]: 3.1 °C

SMILES: C[C@@H](CO)Cn1cc(-c2c(Cl)cnc3[nH]ccc23)nn1
- ΔTm AurA [1]: 8.1 °C
- ΔTm CAMK1G [2]: 2.2 °C
- ΔTm CK2a1 [3]: 2.0 °C
- ΔTm ULK3 [4]: 7.1 °C
- ΔTm FECH [5]: -0.7 °C
- ΔTm OSR1 [6]: 2.8 °C
- ΔTm CAMK2B [7]: 0.9 °C
- ΔTm ULK1 [8]: 3.8 °C
- ΔTm p38a [9]: -0.5 °C
- ΔTm EphA2 [10]: -0.3 °C
- ΔTm SRC [11]: 0.2 °C
- ΔTm NEK2 [12]: -3.3 °C
- ΔTm SRPK1 [13]: 0.3 °C
- ΔTm DAPK3 [14]: 5.6 °C
- ΔTm CDK2 [15]: 1.5 °C
- ΔTm CLK1 [16]: 5.3 °C
- ΔTm FLT1 [17]: 3.9 °C
- ΔTm p38d [18]: 0.9 °C
- ΔTm MARK4 [19]: 2.4 °C
- ΔTm PAK4 [20]: 3.3 °C
- ΔTm DYRK1A [21]: 1.6 °C
- ΔTm MST1 [22]: 2.5 °C
- ΔTm JNK1 [23]: 1.7 °C
- ΔTm DMPK1 [24]: 2.0 °C
- ΔTm MELK [25]: 4.3 °C
- ΔTm BRPF1 [26]: -0.1 °C
- ΔTm FES [27]: 1.0 °C
- ΔTm ATK3 [28]: 0.2 °C
- ΔTm EPHA7 [29]: 1.5 °C
- ΔTm MSK1_b [30]: 7.5 °C
- ΔTm TTK [31]: 2.2 °C
- ΔTm LOK [32]: -1.3 °C
- ΔTm NDR2 [33]: -1.0 °C
- ΔTm MER [34]: 0.7 °C
- ΔTm NEK1 [35]: 0.7 °C
- ΔTm GPRK5 [36]: 1.5 °C
- ΔTm PCTAIRE1 [37]: 0.6 °C
- ΔTm STLK3 [38]: 1.4 °C
- ΔTm CSNK1E [39]: 3.1 °C
- ΔTm BMPR2 [40]: 6.4 °C
- ΔTm CK1d [41]: 3.7 °C
- ΔTm DAPK1 [42]: 3.2 °C
